This is an account of results in ChEMBL document CHEMBL1131579, “Nitroaromatic amino acids as inhibitors of neuronal nitric oxide synthase” (J Med Chem, 1998).

In general, IC50 refers to the concentration that gives 50% inhibition. Read a high IC50 as weaker potency in that assay.

The assay has as its target T1, Nitric oxide synthase 3 (Bos taurus, UniProt P29473).
T1 sequence (P29473 whole entry): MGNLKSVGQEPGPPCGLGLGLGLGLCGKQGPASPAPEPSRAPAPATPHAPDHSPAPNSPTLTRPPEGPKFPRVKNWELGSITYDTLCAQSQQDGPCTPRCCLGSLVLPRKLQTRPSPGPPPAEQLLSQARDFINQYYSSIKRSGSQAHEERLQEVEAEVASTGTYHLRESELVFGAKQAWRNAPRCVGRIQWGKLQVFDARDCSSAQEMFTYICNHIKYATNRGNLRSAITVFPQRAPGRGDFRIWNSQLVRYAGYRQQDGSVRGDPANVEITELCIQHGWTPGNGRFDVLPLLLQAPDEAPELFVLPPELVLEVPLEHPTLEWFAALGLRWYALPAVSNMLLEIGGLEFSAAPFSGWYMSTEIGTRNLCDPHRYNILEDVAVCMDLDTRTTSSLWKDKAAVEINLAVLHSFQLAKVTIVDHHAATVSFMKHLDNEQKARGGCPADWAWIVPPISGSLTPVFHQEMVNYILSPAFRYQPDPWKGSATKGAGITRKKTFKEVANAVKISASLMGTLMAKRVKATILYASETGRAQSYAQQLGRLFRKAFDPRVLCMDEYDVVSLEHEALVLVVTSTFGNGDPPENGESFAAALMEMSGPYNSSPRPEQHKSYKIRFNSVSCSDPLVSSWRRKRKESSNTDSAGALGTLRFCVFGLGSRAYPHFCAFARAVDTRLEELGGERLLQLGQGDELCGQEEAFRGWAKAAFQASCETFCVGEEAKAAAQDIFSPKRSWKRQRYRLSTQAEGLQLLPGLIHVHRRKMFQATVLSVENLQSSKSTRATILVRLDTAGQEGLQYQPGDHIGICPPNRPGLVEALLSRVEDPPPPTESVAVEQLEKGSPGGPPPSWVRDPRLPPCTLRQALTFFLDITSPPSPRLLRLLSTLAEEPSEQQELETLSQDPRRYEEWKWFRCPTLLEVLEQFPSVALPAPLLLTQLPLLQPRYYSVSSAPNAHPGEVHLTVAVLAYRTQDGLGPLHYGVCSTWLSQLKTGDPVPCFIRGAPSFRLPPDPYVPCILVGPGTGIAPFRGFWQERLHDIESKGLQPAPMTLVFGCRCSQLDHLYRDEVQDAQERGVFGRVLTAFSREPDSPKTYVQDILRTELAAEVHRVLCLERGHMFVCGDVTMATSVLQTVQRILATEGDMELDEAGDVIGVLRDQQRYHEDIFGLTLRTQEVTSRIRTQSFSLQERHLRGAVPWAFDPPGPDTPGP
The assay is described as follows: Inhibitory activity of conversion of radiolabeled arginine to citrulline by isomeric form of nitric oxide synthase Endothelial nitric oxide synthase from cultured bovine aortic endothelial cells. The assay is classed as cell-based, Endothelial cell. The method, boiled down:
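eNOS taken from the CHAPS-solubilized particulate fraction of cultured bovine aortic endothelial cells. Incubated 20 min at ambient temperature with 10 μM L-[2,3-3H]arginine, 1 mM NADPH, 2 mM CaCl2 and graded inhibitor. Stopped at pH 5.5 with EGTA/EDTA; [3H]citrulline isolated on cation-exchange column and counted by scintillation. IC50.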

Each structure is given as a SMILES string.

In turn, `CNC(=N)NCCC[C@H](N)C(=O)O` [TILARGININE] came in with an IC50 of 7 µM.
